## Yeast mating assay 1: variants of the scFv Ab-14

The measurements come from Engelhart et al. 2022 (doi:10.1038/s41597-022-01779-4) through the FLAb antibody collection.

Binding partner: SARS-CoV-2 spike HR2 peptide, sequence PDVDLGDISGINAS.

Parent: Ab-14, a human scFv built as VH, a 15-residue (Gly4Ser)3 linker, VL. Only the CDRs of the light chain vary.
VH: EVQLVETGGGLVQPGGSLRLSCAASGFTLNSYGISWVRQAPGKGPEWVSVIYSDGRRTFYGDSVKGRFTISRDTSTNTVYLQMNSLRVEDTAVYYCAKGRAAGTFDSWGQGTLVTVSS
VL: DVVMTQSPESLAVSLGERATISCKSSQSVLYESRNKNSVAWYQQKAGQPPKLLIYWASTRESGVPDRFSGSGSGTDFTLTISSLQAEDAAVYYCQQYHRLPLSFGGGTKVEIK

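The parent was found by panning a naive human phage display library on the peptide. AAYL50 was designed without a model: most single CDR substitutions and a random sample of double and triple ones. The scFvs were displayed on barcoded MATa yeast, the peptide on MATalpha yeast. Mating (16 h, 30 °C) was followed by selection of diploids and sequencing of their barcodes. Read counts were normalised to the haploid input and turned into Kd by a linear fit to BCL2-family pairs of known affinity, for each replicate. Mating was done three times.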

Variants are written as CDR1, CDR2 and CDR3 of the light chain (limits as in the source). Parent: KSSQSVLYESRNKNSVA, WASTRES, QQYHRLPLS.
All variants listed here change R99 of the VL, counted from its first residue.
The Kd shown is the geometric mean over detected replicates; a lower Kd is a better binder.
Where no diploid with the target was found in any replicate, the entry reads "nd": below detection, most likely a poor binder, though not proof of it.
Three control strains display no target. For library AAYL50, 18% of the pairings with them gave a signal, with a median of 15 µM and one signal in twenty below 970 nM, so weak values seen in few replicates may be background. Also given: how often the same scFv was detected with the empty control strains.

Variant KSSQSVLYESRNKNSVA / WASIRES / NQYHELPLS showed 570 nM (3 of 3 replicates; controls 5 of 9).
Variant KSSQSVLYESRNKNAVA / WASTLES / QQYHALPLS showed 22 nM (3 of 3 replicates; controls 1 of 9).
Variant KSSQDVLYESRNKNSVA / WASTRES / QQYHHLPVS showed 4.7 nM (3 of 3 replicates; controls 4 of 9).
Variant KSSQSVNYESRNKNSVA / WASTRES / QQYHALSLS showed 19 nM (3 of 3 replicates; controls 3 of 9).
Variant KSSQSVLYESRNKNSVA / WALTRES / QQYHSLPLD showed 62 µM (1 of 3 replicates; controls 0 of 9).
Variant KSSQSVLYESRNKNLVA / WASTRES / QQYHMLPLS showed 460 nM (3 of 3 replicates; controls 2 of 9).
Variant KSSQSVLYESRIKNSVA / WASTRES / QQYHVLPLT showed 11 nM (3 of 3 replicates; controls 0 of 9).
Variant KSSQNVLYESRNKNSVA / WASTRES / QQYHFLPLW showed 20 nM (3 of 3 replicates; controls 1 of 9).
Variant KSSQSVLYESRNFNSVA / WASTRES / QQYHFLKLS showed nd (0 of 3 replicates; controls 0 of 9).
Variant KSSQSVLYESRNKNSVA / WAGTRES / QQYHQLPLS showed 19 nM (3 of 3 replicates; controls 5 of 9).
Variant KSSQSVLYESRTKNSMA / WASTRES / QQYHCLPLS showed 49 nM (3 of 3 replicates; controls 1 of 9).
Variant KSSASVLYESRNKNSRA / WASTRES / QQYHTLPLS showed nd (0 of 3 replicates; controls 1 of 9).
Variant KESQSVLYESRNKNSVA / WASTRES / QVYHILPLS showed 54 nM (3 of 3 replicates; controls 1 of 9).
Variant KSSQSVLYESRRKNSVA / WASTREF / QQYHVLPLS showed 490 nM (3 of 3 replicates; controls 1 of 9).
Variant KSSQSVLYESRNKNSFA / WDSTRES / QQYHGLPLS showed nd (0 of 3 replicates; controls 1 of 9).
Variant KSSQSVLYESRNKNSVA / AASTRES / QQYHHLPLE showed 1.4 nM (3 of 3 replicates; controls 0 of 9).
Variant KSSQSVLYSSRNKNSVA / WGSTRES / QQYHLLPLS showed 6.2 nM (3 of 3 replicates; controls 2 of 9).
Variant KSSQSVLYESRNKNSVA / WASTRES / QQYHELPLL showed 290 nM (3 of 3 replicates; controls 3 of 9).
Variant KSSQSVLYESRNKNIVA / WASTRES / QQYHVRPLS showed nd (0 of 3 replicates; controls 0 of 9).
Variant KSSQSVLYESRNKNSVA / WVSTRES / QQYHSLPLS showed nd (0 of 3 replicates; controls 0 of 9).
Variant KSSQSVLYESRNKNSVA / WWSTRES / QQYHDLPLF showed nd (0 of 3 replicates; controls 1 of 9).
Variant KSSQSWLYEQRNKNSVA / WASTRES / QQYHWLPLS showed 4.7 nM (3 of 3 replicates; controls 3 of 9).
Variant KSSQSVLYESRNKITVA / WASTRES / QQYHVLPLS showed nd (0 of 3 replicates; controls 1 of 9).
Variant KKSQSVLYESRNKNSVA / WAQTRES / QQYHWLPLS showed 2.1 µM (3 of 3 replicates; controls 2 of 9).
Variant KSSQSVQYESRNKNSVA / WAMTRES / QQYHILPLS showed 700 nM (3 of 3 replicates; controls 4 of 9).
Variant KSSQSVLSESRLKNSVA / WASTRES / QQYHWLPLS showed 460 nM (3 of 3 replicates; controls 4 of 9).
Variant KSSQSVAYESRNKNSVA / WASCRES / QQYHALPLS showed nd (0 of 3 replicates; controls 0 of 9).
Variant KSSQSVLPESANKNSVA / WASTRES / QQYHPLPLS showed 5.2 nM (3 of 3 replicates; controls 1 of 9).
Variant KSSQSVLYESRNKNSVW / WASTRES / QQYHYLPLS showed nd (0 of 3 replicates; controls 0 of 9).
Variant KSSQSVLYESRNKNFVA / WASTRES / QQYHILPLK showed nd (0 of 3 replicates; controls 0 of 9).
Variant KLSQSVLVESRNKNSVA / WASTRES / QQYHCLPLS showed 15 nM (3 of 3 replicates; controls 1 of 9).
Variant KSSQSVFYESRNKNSVA / WASTRWS / QQYHALPLS showed 27 nM (3 of 3 replicates; controls 1 of 9).
Variant KSSQAVLYESRDKNSVA / WASTRES / QQYHTLPLS showed 10 nM (3 of 3 replicates; controls 0 of 9).
Variant KSSQSVLYESRQKNSVA / WASTRES / QQYHWFPLS showed nd (0 of 3 replicates; controls 0 of 9).
Variant KSSQSSLYESRNKNQVA / WASTRES / QQYHPLPLS showed 5.9 nM (3 of 3 replicates; controls 1 of 9).
Variant KSSQMVLYESRNKNNVA / WASTRES / QQYHPLPLS showed nd (0 of 3 replicates; controls 1 of 9).
Variant KSSQSELYESRNKNSFA / WASTRES / QQYHYLPLS showed nd (0 of 3 replicates; controls 0 of 9).
Variant KSSASVLYESRNKNSVA / WASTRES / QQYHYNPLS showed nd (0 of 3 replicates; controls 0 of 9).
Variant KSSQSVLYESRNKNGVA / WASTRES / QQYKGLPLS showed 1.6 µM (3 of 3 replicates; controls 2 of 9).
Variant KSSQSVLYESRNKNSNA / WASTDES / QQYHSLPLS showed 300 µM (2 of 3 replicates; controls 3 of 9).
Variant KSSQSVLYESRNKNSVA / WASTIMS / QQYHILPLS showed 170 nM (3 of 3 replicates; controls 0 of 9).
Variant KSSQSVLYESRNKNSKA / WASTRES / QQYHKLPLS showed 68 µM (2 of 3 replicates; controls 5 of 9).
Variant KSSQSVLYEARNKNSVA / WASTRES / QQYHHLPLG showed 11 nM (3 of 3 replicates; controls 3 of 9).
Variant KSSWSVLYESRNRNSVA / WASTRES / QQYHCLPLS showed 18 µM (1 of 3 replicates; controls 0 of 9).

Excerpt, the final 5 entries:

{"CDR-L1": "KSSQSVLYESRNKNSNA", "CDR-L2": "WASTDES", "CDR-L3": "QQYHSLPLS", "Kd": "300 µM", "detected": "2 of 3", "signal with controls": "3 of 9"}
{"CDR-L1": "KSSQSVLYESRNKNSVA", "CDR-L2": "WASTIMS", "CDR-L3": "QQYHILPLS", "Kd": "170 nM", "detected": "3 of 3", "signal with controls": "0 of 9"}
{"CDR-L1": "KSSQSVLYESRNKNSKA", "CDR-L2": "WASTRES", "CDR-L3": "QQYHKLPLS", "Kd": "68 µM", "detected": "2 of 3", "signal with controls": "5 of 9"}
{"CDR-L1": "KSSQSVLYEARNKNSVA", "CDR-L2": "WASTRES", "CDR-L3": "QQYHHLPLG", "Kd": "11 nM", "detected": "3 of 3", "signal with controls": "3 of 9"}
{"CDR-L1": "KSSWSVLYESRNRNSVA", "CDR-L2": "WASTRES", "CDR-L3": "QQYHCLPLS", "Kd": "18 µM", "detected": "1 of 3", "signal with controls": "0 of 9"}